Values quoted from earlier work as cited in patent publication EP0936918B1, “COMBINATION THERAPY FOR TREATMENT OF ARTHRITIC DISEASES” (BRITISH BIOTECH PHARMACEUTICALS LIMITED, priority 1996, dated 1998).

Details: results in animals, Hiestand et al. 1985; cited from earlier work

## cyclosporin G
  nephrotoxicity relative to CyA: less nephrotoxicity
